The values below come from US10759863B2, “Modulation of γδ T cells” (Sanford Burnham Prebys Medical Discovery Institute, priority 2013, dated 2020).

The subject of the test is BTLA expression in γδT cells and ILCs. Kind of test: Cytokine-induced BTLA expression in cultured iLN γδT cells and PP ILCs. The note with it: iLN lymphocytes of Rorc(t)gfp/+ mice enriched for CD27− γδT cells; FIG. 17A. The class given is cell-based. The method, then:
Surface staining was performed on ice for 20-30 min. Intracellular staining was performed using the BD Cytofix/Cytoperm™ Kit according the manufacturer's instructions (BD Biosciences). Stained cells were acquired using a BD LSRFortessa™ equipped with 4 lasers (blue at 488 nm, yellow-green at 561 nm, red at 640 nm, violet at 405 nm). Antibodies in SI.
For IL-7 induced expansion iLN lymphocytes were cultured in RF10 media (RPMI+10% FBS, p/s, L-Glutamine) at 10^7/ml in 12-well plates for four days. For IL-7 induced BTLA expression iLN or PP lymphocytes were enriched for ILCs and CD27^− γδT cells and cultured in RF10 media in 24-well plates containing feeder adherent cells for two days. Following enrichment, cells from 3 animals were cultured in 1 ml in a single well. IL-7 (R&D Systems, Minneapolis, Minn.) was added at 10 ng/ml. For IL-17 and TNF production whole lymph node cells were cultured with or without 10 ng/ml IL-7 for 18 hours and then re-stimulated with PMA (50 ng/ml), ionomycin (750 ng/ml) and Golgi Stop™ (BD Biosciences) for 3.5 hours. TH17 differentiation was performed by isolating CD4^+ T cells from spleens and culturing in anti-CD3 (5 μg/ml) coated 24-well plates at 1.35×10^6/ml with anti-CD28 (2 μg/ml), IL-6 (20 ng/ml) and TGFβ1 (2 ng/ml). At day 5, cells were washed and re-stimulated with PMA+ionomycin and Golgi Stop™ (BD Biosciences) for 3.5 hours. […]

In the case of IL-2: activating cytokine, the “BTLA induction in RORγt+ γδT cells after culture with activating cytokines” value is “induced”.
